Screens from PubChem.
Rango release inh = qHTS Assay for Inhibitors of RanGTP induced Rango (Ran-regulated importin-beta cargo) - Importin beta complex dissociation. 340,000 tested, 0.071% active. Potency, µM (doses to about 46.1 µM), without a hit: at the top dose activity change, negative = inhibition. Biochemical FRET Rango-importin beta, RanGTP-induced dissociation. Snurportin-1 (Homo sapiens) + GTP-binding nuclear protein Ran (Homo sapiens) + Importin …; also: potency is read from the fitted curve at half-maximal effect; % of control where 0% means no effect; nearly all actives have a fitted effect of over 45% in size
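Rango FRET biosensor (snurportin-1 IBB flanked by N-terminal EYFP and C-terminal CFP10) at 0.1 uM, with 0.25 uM importin beta in PBS, 1mM DTT, 0.02% Tween-20, 0.1% BSA. 0.6 uM Ran, 2mM GTP and 0.2 uM RCC1 were then added for 45 min at room temperature. Inhibition read as loss of FRET rise.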
Rango complex inh = qHTS Assay for Inhibitors of Rango (Ran-regulated importin-beta cargo) - Importin beta complex formation; 340,000 tested, 0.031% active; Potency, µM (series often up to 92.2 µM), for inactives: at the highest dose inhibition of complex formation; AID 540263, 2011; Importin subunit beta-1 (Homo sapiens), Q14974; Rango CFP/YFP FRET sensor + importin beta, 45 min;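 also: potency is read from the fitted curve at half-maximal effect; 0% = DMSO wells and 100% = buffer wells lacking importin beta; nearly all actives have a fitted effect of over 15% in size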
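FRET biosensor Rango (snurportin 1 IBB between N-terminal EYFP and C-terminal Cerulean), 50 nM in PBS/1 mM DTT/0.02% Tween-20/0.1% BSA, preincubated 5 min RT with compound; 0.125 microM importin beta added, 45 min RT, CFP/YFP FRET ratio read.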
CBFb-RUNX1 inh = qHTS Assay for Compounds Blocking the Interaction Between CBF-beta and RUNX1 for the Treatment of Acute Myeloid Leukemia | 230,000 tested, under 10 active | Runt-related transcription factor 1 (Homo sapiens) + Core-binding factor subunit beta … | Potency, µM (top dose mostly 59.8 µM), without a hit: at the top dose activity, negative = inhibition, hits mostly inhibitors | AlphaScreen CBFb-His/RUNX1-biotin binding, biochemical; active = well fitted curve in the direction sought with a large enough effect; inconclusive = small, poorly fitted or top-dose-only effect, or effect the other way, or another doubt; inactive = no such curve, though single readings can be large or run the other way; also: % of control where 0% means no effect
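CBFb-His/RUNX1-biotin, 30 nM each, preincubated 20 min RT; compound 15 min RT; Ni + streptavidin beads 50 ng each, 90 min RT; AlphaScreen read.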
MBNL1-CUG inh = qHTS Assay for Inhibitors of MBNL1-poly(CUG) RNA binding | 280,000 tested, 0.036% active | Muscleblind-like protein 1 (Homo sapiens), Q9NR56 | TR-FRET MBNL1-His/biotin-(CUG)12 binding, 665/545 ratio | Potency, µM (highest dose often 57.5 µM), inactives show at the highest dose activity change, negative = inhibition, actives largely listed as inhibitors | AID 2675, 2010; active = well fitted inhibition curve with a large enough effect in the signal ratio, with a control signal flat, not every such curve was filed as active; inconclusive = small, poorly fitted or top-dose-only effect, or effect the other way, or a change in a side signal; inactive = no such curve, though single readings can be large or run the other way; the % refers to the signal ratio; also: potency is read from the fitted curve at half-maximal effect; % is scaled to controls: 0 for no effect and ±100 for the full control effect
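Compound titration spanned 92 nM–58 uM against the MBNL1-His/biotin-(CUG)12 complex. After 60 min at room temperature with 5 nM streptavidin-XL665 and 0.055 ng/ul terbium anti-His, ratiometric 665/545 nm emission (Ex 340 nm) normalized to controls.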
ClpP mod = qHTS Assay for Activators of ClpP; Potency, µM (series often up to 57.5 µM), inactives show at the top dose activity change, negative = active; 340,000 tested, 1.9% active; ATP-dependent Clp protease proteolytic subunit (Bacillus subtilis (strain 168)), P80244; AID 651965, 2013; purified B. subtilis ClpP, FRET peptide cleavage, 20 min; active = well fitted falling curve with a large enough effect; inconclusive = small, poorly fitted or top-dose-only effect; inactive = no such curve, though single readings can be large or run the other way; also: potency is read from the fitted curve at half-maximal effect; the source files actives as falling curves though it sought activators and does not explain the sign; nearly all actives have a fitted effect of over 65% in size
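ClpP 10 microg/mL final, pH 8 Tris/KCl buffer with BSA, glycerol, Tween-20; compound pinned in; FRET-FV substrate; RT 20 min; Ex320/Em430; ΔFRET vs ADEP 5.8 microM, DMSO, no enzyme.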
An asterisk follows results filed as active; ? = inconclusive; · = no result given; [ ] = another dose, or the depositor's remark. This is one part of a sample in which hits are shown more often than they occur. Unless noted, calls follow the shape of the full dose curve.

The chains behind the UniProt entries cited, without tags or fusion partners.
Importin subunit beta-1 (Homo sapiens), Q14974, UniProt Q14974, whole entry, looked up: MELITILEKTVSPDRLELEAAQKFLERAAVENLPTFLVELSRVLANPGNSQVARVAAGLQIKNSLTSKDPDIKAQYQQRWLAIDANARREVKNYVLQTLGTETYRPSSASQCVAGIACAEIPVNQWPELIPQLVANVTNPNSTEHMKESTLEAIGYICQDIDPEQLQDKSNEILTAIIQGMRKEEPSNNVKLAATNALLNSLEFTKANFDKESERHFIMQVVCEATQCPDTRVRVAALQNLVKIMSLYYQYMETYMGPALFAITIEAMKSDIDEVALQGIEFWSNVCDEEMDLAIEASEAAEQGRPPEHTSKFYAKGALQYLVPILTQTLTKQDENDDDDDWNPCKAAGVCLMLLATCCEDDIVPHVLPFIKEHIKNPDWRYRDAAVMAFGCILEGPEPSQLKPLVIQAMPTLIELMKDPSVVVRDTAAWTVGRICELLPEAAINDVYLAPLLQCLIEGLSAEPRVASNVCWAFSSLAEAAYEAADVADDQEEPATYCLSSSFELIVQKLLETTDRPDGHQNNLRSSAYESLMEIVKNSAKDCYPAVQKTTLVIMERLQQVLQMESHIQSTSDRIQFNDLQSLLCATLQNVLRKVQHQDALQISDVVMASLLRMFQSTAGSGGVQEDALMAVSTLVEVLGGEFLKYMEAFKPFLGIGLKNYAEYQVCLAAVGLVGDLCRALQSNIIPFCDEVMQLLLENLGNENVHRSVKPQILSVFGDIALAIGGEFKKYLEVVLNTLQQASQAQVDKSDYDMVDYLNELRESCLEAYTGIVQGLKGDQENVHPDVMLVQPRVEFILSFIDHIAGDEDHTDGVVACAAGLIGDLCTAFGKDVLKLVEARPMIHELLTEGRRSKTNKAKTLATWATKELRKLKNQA
ATP-dependent Clp protease proteolytic subunit (Bacillus subtilis (strain 168)), P80244, UniProt P80244, whole entry, looked up: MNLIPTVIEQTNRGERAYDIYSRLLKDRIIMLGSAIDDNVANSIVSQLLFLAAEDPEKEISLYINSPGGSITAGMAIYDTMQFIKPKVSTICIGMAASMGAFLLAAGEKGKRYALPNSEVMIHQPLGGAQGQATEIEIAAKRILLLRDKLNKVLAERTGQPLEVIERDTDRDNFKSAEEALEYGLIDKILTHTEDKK

SMILES	Rango release inh	Rango complex inh	CBFb-RUNX1 inh	MBNL1-CUG inh	ClpP mod
O=C(Cc1ccc(Cl)cc1)Nc1cccc(-c2nnc(-c3ccco3)o2)c1	7%	-1%	-6%	-2%	?
COc1ccc(N2CCN(CCCNC(=O)c3sc4ncccc4c3-n3cccc3)CC2)cc1	·	·	·	·	1%
CC(NC(=O)Cn1ncc2c3ccccc3n(Cc3ccc(F)cc3)c2c1=O)c1ccccc1 (stereo unspecified)	·	·	·	·	7%
FC(F)(F)c1cc(-c2cccs2)nc(-n2cc(Br)cn2)n1	-3%	-4%	13%	2%	32µM*
COc1ccccc1N1CCN(C(c2cc3ccc(C)cc3[nH]c2=O)c2nnnn2C2CCCC2)CC1 (stereo unspecified)	-3%	58µM*	-10%	?	-20%
COc1ccccc1N1CCN(C(c2cc3cc(C)ccc3[nH]c2=O)c2nnnn2C2CCCC2)CC1 (stereo unspecified)	-8%	-2%	0%	5%	-27%
COc1ccc(OC)c(C(c2nnnn2C2CCCC2)N2CCN(c3ccccc3F)CC2)c1 (stereo unspecified)	-3%	2%	-5%	-2%	25µM*
CCOc1ccc(Nc2nc(N)c(C(=O)c3ccccc3Cl)s2)cc1	·	·	·	·	-1%
CC1=CC(C)C2C(=O)N(c3ccccc3)NC(=O)C2C1 (stereo unspecified)	-10%	5%	-8%	-10%	16µM*
Nc1nc(-c2ccccc2)[nH]c(=O)c1N	?	?	5%	24%[11.5 µM]	28µM*
COc1ccc(OC)c(NC(=O)CSCc2cnn(-c3ccccc3)c2-n2cccc2)c1	0%	4%	-19%	9%	32µM*
COc1cc(NC(=O)CSCc2cnn(-c3ccccc3)c2-n2cccc2)cc(OC)c1	3%	-3%	-14%	2%	-1%
O=C(NCc1nnnn1-c1ccc(Cl)cc1)c1ccc(Br)o1	-7%	-3%	·	·	16µM*
O=C(CNC(=O)c1ccc(Br)o1)NNC(=O)c1ccc(Cl)cc1	0%	-1%	·	·	22µM*
O=C(CCNC(=O)c1ccc(Br)o1)NCc1ccc(Cl)cc1	1%	-3%	2%	1%	1%
CC(C)c1cc(=O)oc2c3c4c(cc12)CCCN4CCC3	?	?	?	?	28µM*
Cc1cc(=O)oc2c3c4c(cc12)OCCN4CCC3	?	?	1%	?	22µM*
CC(=O)c1sc2ccccc2c1OC(=O)c1ccco1	26µM*	?	2%	8%	-13%
CN(C(=O)COC(=O)c1ccc2c(c1)OCO2)C1CCCCC1	-5%	0%	·	·	·
CCN(C(=O)COC(=O)c1ccc2c(c1)OCO2)c1ccc(F)cc1	15%	-1%	·	·	28µM*
CC(C)CC(NC(=O)C1CCCCC1)C(=O)N1CCN(c2ccccn2)CC1 (stereo unspecified)	1%	-2%	-4%	-3%	28µM*
O=C(O)CCC(=O)N1CCN(c2ccccn2)CC1	-4%	2%	3%	-2%	25µM*
O=C(CC1c2ccccc2Oc2ccccc21)N1CCN(c2ccccn2)CC1	9%	1%	0%	-13%	-26%
CC(C)Cc1nnc(NC(=O)CCC(=O)N2CCN(c3ccccn3)CC2)s1	14%	-1%	3%	-3%	25µM*
O=C(CC1CCCCC1)N1CCN(c2ccccn2)CC1	-2%	1%	3%	-8%	32µM*
O=C(NCc1ccc(F)cc1)c1cc2n(n1)CCCN(Cc1ccc(F)cc1)C2=O	·	·	·	·	0%
CCc1nc2nc(C)cc(Nc3cc(Cl)ccc3C)n2n1	·	·	·	·	0%

Profiles from above. Order of values: Rango release inh, Rango complex inh, CBFb-RUNX1 inh, MBNL1-CUG inh, ClpP mod
`CC(NC(=O)Cn1ncc2c3ccccc3n(Cc3ccc(F)cc3)c2c1=O)c1ccccc1` (stereo unspecified) across the screens: ·, ·, ·, ·, 7%
`O=C(Cc1ccc(Cl)cc1)Nc1cccc(-c2nnc(-c3ccco3)o2)c1` across the screens: 7%, -1%, -6%, -2%, ?

3 entries from above, ordered by their value in CBFb-RUNX1 inh, smallest number first.
Structure | CBFb-RUNX1 inh
CC1=CC(C)C2C(=O)N(c3ccccc3)NC(=O)C2C1 (stereo unspecified) | -8%
CC(C)CC(NC(=O)C1CCCCC1)C(=O)N1CCN(c2ccccn2)CC1 (stereo unspecified) | -4%
O=C(CC1c2ccccc2Oc2ccccc21)N1CCN(c2ccccn2)CC1 | 0%
